# Target: G143X MjHSP16.5 (HSP16.5-G143STOP, the IXI motif deletion construct) (Methanocaldococcus jannaschii) (UniProt Q57733)
# Assay: SEC; Superose 6 column, room temperature, 20 mM Tris-HCl pH 7.4 or 10 mM HEPES pH 7.4 and 100 mM NaCl; about 5 mg of purified protein; size from elution volume against mass standards
substance,measurement,value
"G143X MjHSP16.5 (HSP16.5-G143STOP, the IXI motif deletion construct) (from UniProt Q57733 1-142) (domain or fragment)",stoichiometry N,2

# — article PMC3638399
